Target: Aldo-keto reductase family 1 member B1 (Bos taurus, UniProt P16116)
Assay: Evaluated for inhibition of Aldose reductase 2
Procedure, shortened: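 Calf lens ALR2, partially purified by DE-52 (6.5 mU/mg), at 3.5 mU/mL. Assay at 37 °C with 4.7 mM D,L-glyceraldehyde and 0.11 mM NADPH in 0.25 M sodium phosphate, pH 6.8, with 0.38 M ammonium sulfate. Inhibitor in DMSO (1% final). A340 decrease corrected by a no-substrate blank.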

In the case of COc1ccc2c(C(=S)N(C)CC(=O)O)cccc2c1C(F)(F)F [TOLRESTAT], the IC50 is reported as 96 nM.

From ChEMBL document CHEMBL1129380, “Synthesis, activity, and molecular modeling of a new series of tricyclic pyridazinones as selective aldose reductase inhibitors” (J Med Chem, 1996)
